{"source": "patent US20130045160A1", "about": "“Magnetic Nano-Composite for Contrast Agent, Intelligent Contrast Agent, Drug Delivery Agent for Simultaneous Diagnosis and Treatment, and Separation Agent for Target Substance” (Industry-Academic Coorporation Foundation, Yonsei University, priority 2006, published 2013)", "test_system": "NIH3T6.7 cell and MDA-MB-231 cell", "assay": "Cytotoxicity test (degree of inhibiting cell growth, MTT agent)", "assay_type": "cell-based", "key": {"[1]": {"details": "4 h exposure, 72 h growth, equivalent herceptin and DOX"}}, "data": [{"substance": "herceptin-magnetic nanocomposite enclosing DOX", "values": [{"measurement": "cytotoxicity compared with herceptin and DOX together", "setting": "[1]", "result": "higher than that of the case acted by herceptin and DOX together"}, {"measurement": "cytotoxicity compared with herceptin and DOX using nanoparticles", "setting": "[1]", "result": "much higher than that of the case that herceptin and DOX were reacted with the cells, using nanoparticles"}, {"measurement": "combined effect of treating cancer cells", "setting": "conclusion from cytotoxicity results", "result": "synergistic effect of treating cancer cells selectively"}]}]}
